Assay: Safety and tolerability (AEs by CTCAE v4.0, DLTs, laboratory, ECG/ECHO, ophthalmic) in Phase I study NCT01213160
Type: in vivo, human
Description: A ‘rolling six’ design was used, with a minimum of three evaluable patients per cohort. If one patient experienced a dose-limiting toxicity (DLT), additional patients were enrolled up to a maximum of six evaluable patients. DLTs were evaluated during the washout period and the first 21-day treatment schedule. […] If two or more evaluable patients experienced a DLT, this dosing level was considered as non-tolerable. It was planned that the maximum tolerated dose (MTD) would be defined either as the dosing level below the non-tolerated dose or such that a dose between the non-tolerated dose and the last tolerated dose may be investigated. Patients who tolerated AZD4547 treatment and received clinical benefit were permitted to continue treatment until they experienced progressive disease or withdrew consent.
Safety and tolerability were assessed during study treatment and until 28 days after the final dose. Adverse events (AEs) were evaluated according to CTCAE (version 4.0), and dose interruptions and reductions were recorded. Laboratory findings and vital signs were analysed. Cardiac monitoring (echocardiogram [ECHO] and ECG) and ophthalmic assessments were also conducted.

AZD4547
2 (33.3) n (%): Diarrhoea, AE of any grade (Part A, 80 mg bid (N = 6)) | Dry skin, AE of any grade (Part A, 80 mg bid (N = 6)) | Dysgeusia, AE of any grade (Part A, 80 mg bid (N = 6)) | Malaise, AE of any grade (Part A, 80 mg bid (N = 6)) | Nausea, AE of any grade (Part A, 80 mg bid (N = 6)) | Nausea, CTCAE grade ≥3 event (Part A, 80 mg bid (N = 6)) | Neutropenia, CTCAE grade ≥3 event (Part A, 80 mg bid (N = 6)) | Vomiting, AE of any grade (Part A, 80 mg bid (N = 6)) | Dry mouth, AE of any grade (Part A, 120 mg bid (N = 6)) | Dry skin, AE of any grade (Part A, 120 mg bid (N = 6)) | Malaise, AE of any grade (Part A, 120 mg bid (N = 6)) | Vomiting, AE of any grade (Part A, 120 mg bid (N = 6))
33.3%: Dry mouth, patients (Part A)
20.0%: Malaise, patients (Part A) | Nail discolouration, patients (Part A) | Pruritus, patients (Part A) | Vomiting, patients (Part A)
6 n: Discontinuation for AEs, patients (Part A, 160 mg qd)
3 (50.0) n (%): Dry mouth, AE of any grade (Part A, 80 mg bid (N = 6)) | Patients with CTCAE grade ≥3 event (Part A, 80 mg bid (N = 6)) | Hyperphosphataemia, AE of any grade (Part A, 120 mg bid (N = 6))
1 (16.7) n (%): Decreased appetite, AE of any grade (Part A, 80 mg bid (N = 6)) | Decreased appetite, CTCAE grade ≥3 event (first line, r20) (Part A, 80 mg bid (N = 6)) | Decreased appetite, CTCAE grade ≥3 event (second line, r24) (Part A, 80 mg bid (N = 6)) | Hyperphosphataemia, AE of any grade (Part A, 80 mg bid (N = 6)) | Increased alanine aminotransferase, CTCAE grade ≥3 event (Part A, 80 mg bid (N = 6)) | Stomatitis, CTCAE grade ≥3 event (Part A, 80 mg bid (N = 6)) | Decreased appetite, AE of any grade (Part A, 120 mg bid (N = 6)) | Nausea, AE of any grade (Part A, 120 mg bid (N = 6))
5 (33.3) n (%): Diarrhoea, AE of any grade (Part A, 160 mg qd (N = 15)) | Dry mouth, AE of any grade (Part A, 160 mg qd (N = 15))
well tolerated: Tolerability (Japanese patients, whole study)
23.3%: Detachment of retinal pigment epithelium, patients (Part A)
4 (66.7) n (%): Stomatitis, AE of any grade (Part A, 80 mg bid (N = 6)) | Stomatitis, AE of any grade (Part A, 120 mg bid (N = 6))
2 (13.3) n (%): Decreased appetite, AE of any grade (Part A, 160 mg qd (N = 15)) | Malaise, AE of any grade (Part A, 160 mg qd (N = 15))
1 (33.3) n (%): Decreased appetite, AE of any grade (Part A, 40 mg bid (N = 3)) | Dry skin, AE of any grade (Part A, 40 mg bid (N = 3)) | Nausea, AE of any grade (Part A, 40 mg bid (N = 3)) | Stomatitis, AE of any grade (Part A, 40 mg bid (N = 3))
36.7%: Hyperphosphataemia, patients (Part A) | Patients with treatment-related increases in blood phosphate levels (Part A)
3.3%: Patients with AE of CTCAE grade ≥3 judged causally related to study treatment (Part A)
26.7%: Nausea, patients (Part A)
40.0%: Diarrhoea, patients (Part A) | Stomatitis, patients (Part A)
46.7%: Dysgeusia, patients (Part A)
–0.29 to 0.72 mmol/L: Median change in phosphate levels from baseline (160 mg qd cohort)
3 (100) n (%): Patients with AE of any grade (Part A, 40 mg bid (N = 3))
6.7%: Patients with SAEs (Part A)
0 (0) n (%): Decreased appetite, CTCAE grade ≥3 event (first line, r20) (Part A, 40 mg bid (N = 3)) | Decreased appetite, CTCAE grade ≥3 event (second line, r24) (Part A, 40 mg bid (N = 3)) | Decreased appetite, SAE grade ≥3 event (Part A, 40 mg bid (N = 3)) | Detachment of retinal pigment epithelium, AE of any grade (Part A, 40 mg bid (N = 3)) | Diarrhoea, AE of any grade (Part A, 40 mg bid (N = 3)) | Dry mouth, AE of any grade (Part A, 40 mg bid (N = 3)) | Dysgeusia, AE of any grade (Part A, 40 mg bid (N = 3)) | Hyperphosphataemia, AE of any grade (Part A, 40 mg bid (N = 3)) | Hypoglycaemia, CTCAE grade ≥3 event (Part A, 40 mg bid (N = 3)) | Increased alanine aminotransferase, CTCAE grade ≥3 event (Part A, 40 mg bid (N = 3)) | Malaise, AE of any grade (Part A, 40 mg bid (N = 3)) | Nausea, CTCAE grade ≥3 event (Part A, 40 mg bid (N = 3)) | Nausea, SAE grade ≥3 event (Part A, 40 mg bid (N = 3)) | Neutropenia, CTCAE grade ≥3 event (Part A, 40 mg bid (N = 3)) | Patients with CTCAE grade ≥3 event (Part A, 40 mg bid (N = 3)) | Patients with SAE grade ≥3 event (Part A, 40 mg bid (N = 3)) | Pneumonia, CTCAE grade ≥3 event (Part A, 40 mg bid (N = 3)) | Stomatitis, CTCAE grade ≥3 event (Part A, 40 mg bid (N = 3)) | Stomatitis, SAE grade ≥3 event (Part A, 40 mg bid (N = 3)) | Vomiting, AE of any grade (Part A, 40 mg bid (N = 3)) | Decreased appetite, SAE grade ≥3 event (Part A, 80 mg bid (N = 6)) | Detachment of retinal pigment epithelium, AE of any grade (Part A, 80 mg bid (N = 6)) | Hypoglycaemia, CTCAE grade ≥3 event (Part A, 80 mg bid (N = 6)) | Nausea, SAE grade ≥3 event (Part A, 80 mg bid (N = 6)) | Patients with SAE grade ≥3 event (Part A, 80 mg bid (N = 6)) | Pneumonia, CTCAE grade ≥3 event (Part A, 80 mg bid (N = 6)) | Stomatitis, SAE grade ≥3 event (Part A, 80 mg bid (N = 6)) | Detachment of retinal pigment epithelium, AE of any grade (Part A, 120 mg bid (N = 6)) | Decreased appetite, CTCAE grade ≥3 event (first line, r20) (Part A, 160 mg qd (N = 15)) | Decreased appetite, CTCAE grade ≥3 event (second line, r24) (Part A, 160 mg qd (N = 15)) | Decreased appetite, SAE grade ≥3 event (Part A, 160 mg qd (N = 15)) | Hypoglycaemia, CTCAE grade ≥3 event (Part A, 160 mg qd (N = 15)) | Increased alanine aminotransferase, CTCAE grade ≥3 event (Part A, 160 mg qd (N = 15)) | Nausea, CTCAE grade ≥3 event (Part A, 160 mg qd (N = 15))
4 (26.7) n (%): Dry skin, AE of any grade (Part A, 160 mg qd (N = 15)) | Nausea, AE of any grade (Part A, 160 mg qd (N = 15))
–0.16 to 0.79 mmol/L: Median change in phosphate levels from baseline (80 mg bid cohort (combined from Parts A and B))
6 (100) n (%): Patients with AE of any grade (Part A, 80 mg bid (N = 6)) | Patients with AE of any grade (Part A, 120 mg bid (N = 6))
5 (83.3) n (%): Diarrhoea, AE of any grade (Part A, 120 mg bid (N = 6)) | Dysgeusia, AE of any grade (Part A, 120 mg bid (N = 6))
30.0%: Dry skin, patients (Part A) | Patients with dose interruptions following AEs (Part A) | AE leading to discontinuation, patients (Part A (9/30))
